Antibody variant affinities, Ab-14 heavy chain, assay 1

All variants were tested on one target, the spike HR2 peptide PDVDLGDISGINAS (SARS-CoV-2).

Each scFv is VH, the linker GGGGSGGGGSGGGGS, VL, as in the parent Ab-14, and differs from it in the CDRs of the heavy chain only.
VH: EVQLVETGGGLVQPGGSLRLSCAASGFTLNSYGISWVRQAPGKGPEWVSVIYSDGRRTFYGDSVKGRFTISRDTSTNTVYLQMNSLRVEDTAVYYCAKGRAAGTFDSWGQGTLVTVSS
VL: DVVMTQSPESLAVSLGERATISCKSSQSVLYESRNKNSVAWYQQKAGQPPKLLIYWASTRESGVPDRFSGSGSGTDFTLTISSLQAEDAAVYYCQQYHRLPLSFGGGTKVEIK

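The parent was found by panning a naive human phage display library on the peptide. AAYL49 was designed without a model: most single CDR substitutions and a random sample of double and triple ones. Affinity was read by AlphaSeq, a pooled yeast mating assay with surface-displayed partners. Mating (16 h, 30 °C) was followed by selection of diploids and sequencing of their barcodes. The ratio of observed to expected reads was calibrated, replicate by replicate, on BCL2-family standards whose Kd was known from biolayer interferometry. There are three technical replicates.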

The parent's heavy chain CDRs are GFTLNSYGIS, VIYSDGRRTFYGDSVK, GRAAGTFDS; each variant's own CDRs replace them letter for letter. This list gathers variants with a substitution at G33 (VH, numbered from residue 1). Numbers give log10(Kd / nM), so 0 is 1 nM and 3 is 1 µM. Smaller is tighter. A mean of the replicates is given; it leaves out those without a signal. "nd" means that the variant was in the library but no mating with the target was seen in that replicate; the authors take this as a sign of poor binding, and no number exists. As a blank, each scFv also met three strains without target: over library AAYL49, 15% of these pairings were detected, typically at 4.06 and seldom below 2.83. The control count says in how many pairings with the empty strains this scFv gave a signal.

Variant GFTLQSYFIS / VIYSDGRRTFYGDSVK / GRAAGTFQS gave nd, nd, nd (controls 0 of 9).
Variant GFTLNSYMIS / VIYSDGRRHFYGDSVK / GRDAGTFDS gave nd, nd, nd (controls 0 of 9).
Variant GFTLNSYAIS / VIYSDGRRVFYGDSVK / GRAAATFDS gave 4.42, 5.75, 5.47 (mean 5.21; controls 7 of 9).
Variant GFVLNSYKIS / VIYSDGRRTFYPDSVK / GRAAGTFDS gave nd, nd, nd (controls 0 of 9).
Variant GFTLNSYEIS / VIYSDGRRTFYGDSVQ / GRSAGTFDS gave nd, nd, nd (controls 1 of 9).
Variant GFTLNSYEII / VIYSDGRRTFYGDSVK / PRAAGTFDS gave nd, nd, nd (controls 2 of 9).
Variant WFTLNSYPIS / VIHSDGRRTFYGDSVK / GRAAGTFDS gave nd, 2.64, nd (controls 0 of 9).
Variant GFTLNSYMIL / VTYSDGRRTFYGDSVK / GRAAGTFDS gave nd, nd, nd (controls 0 of 9).
Variant GFELNSYYIS / VIYSDGRRTFYGDSVK / LRAAGTFDS gave nd, nd, 5.35 (controls 1 of 9).
Variant GFTLNSYAIS / VIYSDGRRTFYGDSVK / ERAAGTFNS gave 2.34, nd, nd (controls 2 of 9).
Variant GFTLNSYEIS / VIYSDGRRTFYGDSVK / GRAAGNFDS gave nd, nd, nd (controls 0 of 9).
Variant GFTLNSYSIS / VIYSDGRRTFYGDSFK / GRAATTFDS gave nd, nd, nd (controls 0 of 9).
Variant GFTLNSYAIS / VFYSDGRRTFYGDSVK / GRVAGTFDS gave 5.13, nd, nd (controls 0 of 9).
Variant GFTLNSYPIS / NIYSDGRRTFYADSVK / GRAAGTFDS gave 4.79, nd, nd (controls 0 of 9).
Variant LFTLQSYVIS / VIYSDGRRTFYGDSVK / GRAAGTFDS gave nd, nd, nd (controls 2 of 9).
Variant GFTLNSGAIS / VIYSDGRRTFYGDSVK / GRCAGTFDS gave nd, nd, nd (controls 0 of 9).
Variant GFTLNSYCIS / VMYSDGDRTFYGDSVK / GRAAGTFDS gave nd, nd, nd (controls 1 of 9).
Variant GFTLNSYYIS / VIYSDRRRTFYGDSVK / GRAAGTFDS gave 3.55, nd, nd (controls 1 of 9).
Variant GFTSNSYKIS / VIYSDGRRFFYGDSVK / GRAAGTFDS gave nd, 5.16, 5.83 (mean 5.49; controls 0 of 9).
Variant GFTHNSYVIS / VIYKDGRRTFYGDSVK / GRAAGTFDS gave nd, nd, nd (controls 1 of 9).
Variant GFTLNSYLPS / VIYSDGRRTFYGDSVK / GRFAGTFDS gave nd, 3.62, 4.45 (mean 4.03; controls 2 of 9).
Variant GFTLNSYIIS / VIYSDGRRTFYTDSVK / GRAAGTFDS gave nd, nd, 4.91 (controls 1 of 9).
Variant GFTLNSYLIS / VIYSDGRRTCYGDSVG / GRAAGTFDS gave 4.12, nd, nd (controls 3 of 9).
Variant GFTLNSYMIS / VIYSDGRRTFYGDSVK / GRAAGTFDS gave nd, nd, nd (controls 1 of 9).
Variant GFTLNSYIIS / VWYSDGRRTFYGDSVK / GRAAVTFDS gave 4.50, 3.75, nd (mean 4.12; controls 2 of 9).
Variant GFTLNSYEIS / VIYSDGRRTFYGDSVK / GRVAGLFDS gave nd, nd, 4.89 (controls 2 of 9).
Variant GFTLNSYWIS / VIYSDGRDTFYGDWVK / GRAAGTFDS gave 4.93, 4.11, 5.01 (mean 4.68; controls 8 of 9).
Variant GFTFNSYNIS / VIYSDGRRTFYGDSVK / GRAAGTFDH gave nd, nd, nd (controls 1 of 9).
Variant GFTLNSYPIS / VIYSDGRRTSLGDSVK / GRAAGTFDS gave nd, nd, nd (controls 0 of 9).
Variant GFTLNSYTIS / VAYSDGRRTFYGDSVK / GRAAGTFDE gave nd, nd, nd (controls 1 of 9).
Variant GFTLNSQEIS / VIYSDGTRTFYGDSVK / GRAAGTFDS gave nd, 3.22, nd (controls 0 of 9).
Variant GFTLNSYMIS / VIYSDGRRTFYADSVK / GRAYGTFDS gave nd, nd, nd (controls 0 of 9).
Variant GFTKNSYSIC / VIYSDGRRTFYGDSVK / GRAAGTFDS gave nd, nd, nd (controls 2 of 9).
Variant GFTLASYMIS / MIYSDGRRTFYGDSVK / GRAAGTFDS gave nd, nd, nd (controls 3 of 9).
Variant GFTLNSYNIS / MIYSNGRRTFYGDSVK / GRAAGTFDS gave nd, nd, 3.53 (controls 2 of 9).
Variant GFTLNEYTIS / VIYSDGRRTFAGDSVK / GRAAGTFDS gave nd, nd, nd (controls 1 of 9).
Variant GFTLNSYCIS / VIYSDGRRTFYGDSVD / GRAAGTFDS gave 4.20, 4.53, nd (mean 4.36; controls 2 of 9).
Variant GFTLNSYVIS / VIYSDGRRTFYGDSVK / GRAAGFFDS gave 4.26, 3.69, 3.34 (mean 3.76; controls 4 of 9).
Variant GFTLNSYIIS / VIYSDGRRFFYGDSVK / GRAAGTFDS gave nd, nd, nd (controls 1 of 9).
Variant GFTLNSYFIT / VDYSDGRRTFYGDSVK / GRAAGTFDS gave nd, 2.97, nd (controls 1 of 9).
Variant GFTLNSYQIS / VIYSWGRRTFYGDSVK / GRAAMTFDS gave nd, nd, nd (controls 1 of 9).

For reference, 2 entries of the list once more:

CDR-H1	CDR-H2	CDR-H3	replicates, log10 nM	mean, log10 nM	signal with controls
GFTLNSGAIS	VIYSDGRRTFYGDSVK	GRCAGTFDS	nd, nd, nd	nd	0/9
GFTLNSYAIS	VIYSDGRRVFYGDSVK	GRAAATFDS	4.42, 5.75, 5.47	5.21	7/9

The measurements come from Engelhart et al. 2022 (doi:10.1038/s41597-022-01779-4) through the FLAb antibody collection.